The values below come from EP4843990A1, “AMINO HETEROARYL MACROCYCLIC COMPOUNDS AS WELL AS PREPARATION METHOD THEREFOR AND USE THEREOF” (dated 2026).

Chains of the proteins cited; added tags and fusions are not shown.
UniProt P08183, whole entry: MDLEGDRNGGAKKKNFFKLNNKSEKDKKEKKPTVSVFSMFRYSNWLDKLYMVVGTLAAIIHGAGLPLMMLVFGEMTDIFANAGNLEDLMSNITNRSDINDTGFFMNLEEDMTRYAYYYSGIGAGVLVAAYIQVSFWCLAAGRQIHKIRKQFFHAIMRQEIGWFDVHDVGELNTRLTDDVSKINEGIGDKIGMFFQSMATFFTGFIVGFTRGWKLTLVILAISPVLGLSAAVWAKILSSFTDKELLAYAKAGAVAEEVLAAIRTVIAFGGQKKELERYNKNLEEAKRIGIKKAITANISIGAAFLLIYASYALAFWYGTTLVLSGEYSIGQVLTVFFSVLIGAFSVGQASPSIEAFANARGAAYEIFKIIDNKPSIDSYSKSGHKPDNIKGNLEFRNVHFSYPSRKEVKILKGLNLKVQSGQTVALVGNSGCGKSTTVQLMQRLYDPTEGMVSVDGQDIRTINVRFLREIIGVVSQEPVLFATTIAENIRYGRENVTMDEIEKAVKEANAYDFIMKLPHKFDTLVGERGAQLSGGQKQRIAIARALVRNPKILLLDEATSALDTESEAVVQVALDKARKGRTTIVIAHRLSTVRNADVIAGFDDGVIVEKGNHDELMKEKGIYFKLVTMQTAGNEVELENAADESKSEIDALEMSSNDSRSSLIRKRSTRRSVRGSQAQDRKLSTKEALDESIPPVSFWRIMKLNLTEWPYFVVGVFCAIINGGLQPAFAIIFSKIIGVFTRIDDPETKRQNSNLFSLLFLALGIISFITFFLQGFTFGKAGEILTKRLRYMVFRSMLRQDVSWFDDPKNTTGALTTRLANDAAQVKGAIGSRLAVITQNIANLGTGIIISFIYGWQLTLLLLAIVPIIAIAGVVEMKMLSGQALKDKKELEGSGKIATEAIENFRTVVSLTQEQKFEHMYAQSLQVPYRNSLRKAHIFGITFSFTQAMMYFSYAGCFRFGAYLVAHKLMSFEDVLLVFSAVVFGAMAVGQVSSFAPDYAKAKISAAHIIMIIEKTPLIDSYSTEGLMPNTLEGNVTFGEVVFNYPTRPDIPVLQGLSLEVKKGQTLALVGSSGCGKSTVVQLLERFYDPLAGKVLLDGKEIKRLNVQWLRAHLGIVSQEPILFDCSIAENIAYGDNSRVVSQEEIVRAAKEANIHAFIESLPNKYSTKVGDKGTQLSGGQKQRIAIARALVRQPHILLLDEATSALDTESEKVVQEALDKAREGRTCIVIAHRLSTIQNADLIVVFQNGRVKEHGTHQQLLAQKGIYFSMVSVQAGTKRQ

The subject of one data set is A431. Nature of the data set: CellTiter-Glo cell proliferation inhibition assay. Conditions: read-out: Antiproliferative activity (IC50 (nM)) A431; A431 cells; 72 hours; CTG. For orientation: In ATP-based viability assays light output follows the ATP content of the culture.
In a further data set the test system is Ba/F3 (EGFR-L858R/C797S). Nature of the data set: CellTiter-Glo cell proliferation inhibition assay. The settings on record: read-out: Antiproliferative activity (IC50 (nM)) Ba/F3 EGFR LR/CS; Ba/F3 (EGFR-L858R/C797S) cells; 72 hours; CTG.
Data set [1] relates to Ba/F3 (EGFR-L858R/T790M/C797S). As to the kind of experiment: CellTiter-Glo cell proliferation inhibition assay. Conditions: read-out: Antiproliferative activity (IC50 (nM)) Ba/F3 EGFR LR/TM/CS; Ba/F3 (EGFR-L858R/T790M/C797S) cells; 72 hours; CTG.
Another data set concerns Ba/F3 EGFR wt+EGF. Nature of the data set: CellTiter-Glo cell proliferation inhibition assay. Conditions: read-out: Antiproliferative activity (IC50 (nM)) Ba/F3 EGFR wt+EGF; Ba/F3 EGFR wt cells with EGF stimulation; 72 hours; CTG.
For another data set, the system named is NCI-H1975. Nature of the data set: CellTiter-Glo cell proliferation inhibition assay. Conditions: read-out: Antiproliferative activity (IC50 (nM)) NCI-H1975; NCI-H1975 cells; 72 hours; CTG.
A further data set relates to PC9. Nature of the data set: CellTiter-Glo cell proliferation inhibition assay. Conditions: read-out: Antiproliferative activity (IC50 (nM)) PC9; PC9 cells; 72 hours; CTG.
Data set [2] is described as follows: Cassette pharmacokinetic study in mice. The settings on record: ICR mice, PO, cassette dosing.
The target of a further data set is P-gp (Homo sapiens, UniProt P08183). As to the kind of experiment: P-gp substrate evaluation assay (MDCKII-MDR1 Transwell permeability). The settings on record: MDCKII-MDR1 cells; Papp basolateral to apical / apical to basolateral; 2 hours; pH 7.4.

The structures appear in SMILES notation.

With `CC1c2ccc(N3C[C@H](N(C)S(C)(=O)=O)[C@H]3C)c3cnc(cc23)Nc2ccnc(n2)-c2cnn(C)c2OCC1(F)F` (single isomer, unassigned), the IC50 with A431 is 613 nM; in the data set with Ba/F3 (EGFR-L858R/C797S), 0.4 nM; in data set [1], 1.1 nM; with Ba/F3 EGFR wt+EGF, 145 nM; with NCI-H1975, 1.1 nM; in the data set with PC9, 2 nM. Besides, the “Area Under the Curve AUC0-24h” value in data set [2] (10 mg/kg) was 10.972 µg·h/mL. In data set [2] (10 mg/kg), the “Half-life T1/2” value is listed as 6 h. For the same compound, the “Maximum Concentration Cmax” value in data set [2] (10 mg/kg) came out at 0.964 µg/mL. For the same compound, the ER (Efflux Ratio) on P-gp turned out to be 1.

`Cc1nn(C)c2c1-c1nccc(n1)Nc1cc3c(ccc(N4C[C@H](N(C)S(C)(=O)=O)[C@H]4C)c3cn1)C(C)C(F)(F)CO2` (single isomer, unassigned): the IC50 in the data set on A431 was 775 nM; with Ba/F3 (EGFR-L858R/C797S), 0.5 nM; in data set [1], 1.8 nM; in the data set with Ba/F3 EGFR wt+EGF, 138 nM; in the data set with NCI-H1975, 1.4 nM; in the data set on PC9, 2.4 nM. In addition, the “Area Under the Curve AUC0-24h” value in data set [2] (15 mg/kg) is 21.41 µg·h/mL. In addition, the “Half-life T1/2” value in data set [2] (15 mg/kg) turned out to be 5.1 h. The “Maximum Concentration Cmax” value in data set [2] (15 mg/kg) turned out to be 1.581 µg/mL. On P-gp, the ER (Efflux Ratio) came to 1.2.
